Columns and labels:
MPO [1] = biological target: T1, MPO (Homo sapiens, UniProt P05164); assay: MPO inhibitor screening assay kit, peroxidation assay; format: biochemical
T1 construct: purchased Abnova, Taiwan
T1 sequence (P05164 49-745): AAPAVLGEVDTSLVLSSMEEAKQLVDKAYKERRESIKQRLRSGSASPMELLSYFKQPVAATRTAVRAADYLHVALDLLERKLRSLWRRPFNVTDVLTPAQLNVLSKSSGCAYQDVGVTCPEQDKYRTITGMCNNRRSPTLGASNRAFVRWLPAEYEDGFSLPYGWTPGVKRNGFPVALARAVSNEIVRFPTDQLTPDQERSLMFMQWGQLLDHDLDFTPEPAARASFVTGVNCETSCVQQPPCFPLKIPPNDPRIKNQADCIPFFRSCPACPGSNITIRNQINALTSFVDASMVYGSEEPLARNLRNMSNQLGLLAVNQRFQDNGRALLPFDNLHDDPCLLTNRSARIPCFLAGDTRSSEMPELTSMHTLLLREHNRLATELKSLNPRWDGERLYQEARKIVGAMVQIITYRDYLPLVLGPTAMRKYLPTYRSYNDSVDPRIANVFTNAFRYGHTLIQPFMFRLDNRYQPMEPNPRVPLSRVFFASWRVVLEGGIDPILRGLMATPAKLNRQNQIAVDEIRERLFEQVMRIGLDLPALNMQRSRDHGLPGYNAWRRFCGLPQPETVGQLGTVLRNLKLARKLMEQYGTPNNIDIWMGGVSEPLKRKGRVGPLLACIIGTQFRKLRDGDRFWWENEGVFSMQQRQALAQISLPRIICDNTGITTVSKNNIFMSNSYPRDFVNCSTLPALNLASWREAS
Text: (§1) The inhibitory effect of peptides on MPO was estimated using an MPO inhibitor screening assay kit (Abnova, Taiwan), which was used to assess in both the peroxidation and chlorination activities of MPO. Peroxidation assay utilizes the peroxidase component of MPO. During the reaction, hydrogen peroxide reacts with 10-acetyl-3,7-dihydroxyphenoxazine (ADHP) to yield resorufin, a highly fluorescent compound. The chlorination assay utilizes non-fluorescent 2-[6-(4-aminophenoxy)-3-oxo-3H-xanthen-9-yl]-benzoic acid (APF), which is selectively cleaved by hypochlorite to produce fluorescein. The 4-aminobenzhydrazide was used as positive control. The MPO inhibitory activity was determined according to the kit instructions.

MPO [2] = biological target: T1, MPO; assay: MPO inhibitor screening assay kit, chlorination assay; format: biochemical
Text: as §1

CC(C)[C@H](NC(=O)[C@H](CO)NC(=O)[C@H](CCCNC(=N)N)NC(=O)[C@H](CCCNC(=N)N)NC(=O)[C@H](CCCNC(=N)N)NC(=O)[C@H](CCCNC(=N)N)NC(=O)CN)C(=O)N[C@@H](CCC(N)=O)C(=O)N[C@@H](Cc1c[nH]c2ccccc12)C(=O)N[C@@H](CS)C(=O)N[C@@H](C)C(=O)O [GRRRRSVQWCA, reference compound]
IC50 (MPO [1]): 32.8 µM | IC50 (MPO [2]): 27.2 µM
